Chains of the proteins cited; added tags and fusions are not shown.
UniProt P35368, whole entry: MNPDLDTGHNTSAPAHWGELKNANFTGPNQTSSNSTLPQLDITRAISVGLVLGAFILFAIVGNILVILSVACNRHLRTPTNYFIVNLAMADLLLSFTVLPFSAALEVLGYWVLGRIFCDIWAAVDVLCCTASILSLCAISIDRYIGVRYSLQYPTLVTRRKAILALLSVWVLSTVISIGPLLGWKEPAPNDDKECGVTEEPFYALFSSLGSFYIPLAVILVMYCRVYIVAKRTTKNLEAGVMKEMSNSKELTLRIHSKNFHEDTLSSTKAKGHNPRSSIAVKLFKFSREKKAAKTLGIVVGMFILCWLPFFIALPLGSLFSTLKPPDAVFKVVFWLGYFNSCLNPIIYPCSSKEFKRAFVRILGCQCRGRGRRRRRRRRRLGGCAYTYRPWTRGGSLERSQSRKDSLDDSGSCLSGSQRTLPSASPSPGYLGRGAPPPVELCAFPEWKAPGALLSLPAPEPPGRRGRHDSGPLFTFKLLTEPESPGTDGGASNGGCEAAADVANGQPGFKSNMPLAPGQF
UniProt P25100, whole entry: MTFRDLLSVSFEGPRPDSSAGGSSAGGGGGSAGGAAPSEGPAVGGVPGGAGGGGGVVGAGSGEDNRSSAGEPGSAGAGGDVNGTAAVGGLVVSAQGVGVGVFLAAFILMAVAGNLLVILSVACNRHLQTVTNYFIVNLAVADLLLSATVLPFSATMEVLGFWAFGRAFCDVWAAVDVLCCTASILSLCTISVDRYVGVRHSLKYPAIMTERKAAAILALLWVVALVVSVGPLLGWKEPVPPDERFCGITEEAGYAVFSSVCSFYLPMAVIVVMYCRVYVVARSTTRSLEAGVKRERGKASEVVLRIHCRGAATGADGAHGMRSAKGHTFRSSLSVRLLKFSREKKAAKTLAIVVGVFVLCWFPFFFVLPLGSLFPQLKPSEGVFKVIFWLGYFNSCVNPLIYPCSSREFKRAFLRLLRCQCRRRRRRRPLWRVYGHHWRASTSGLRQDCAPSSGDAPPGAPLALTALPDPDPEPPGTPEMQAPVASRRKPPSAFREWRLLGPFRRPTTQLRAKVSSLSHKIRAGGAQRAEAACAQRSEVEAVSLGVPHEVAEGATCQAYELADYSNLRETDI

In US7470703B1 (priority 2004, dated 2008):

How the values were obtained:
Settings in all cases: saturation binding
[1] = target: human α1B-AR (Homo sapiens, UniProt P35368); assay: Radioligand binding ([3H]prazosin) in HEK293 cells expressing human α1B-AR
[2] = target: human α1D-AR (Homo sapiens, UniProt P25100); assay: Radioligand binding ([3H]prazosin) in HEK293 cells expressing human α1D-AR
[3] = target: T1, human α1A-AR (Homo sapiens, UniProt P35348); assay: Radioligand binding ([3H]prazosin) in HEK293 cells expressing human α1A-AR
T1 sequence (P35348 1-466): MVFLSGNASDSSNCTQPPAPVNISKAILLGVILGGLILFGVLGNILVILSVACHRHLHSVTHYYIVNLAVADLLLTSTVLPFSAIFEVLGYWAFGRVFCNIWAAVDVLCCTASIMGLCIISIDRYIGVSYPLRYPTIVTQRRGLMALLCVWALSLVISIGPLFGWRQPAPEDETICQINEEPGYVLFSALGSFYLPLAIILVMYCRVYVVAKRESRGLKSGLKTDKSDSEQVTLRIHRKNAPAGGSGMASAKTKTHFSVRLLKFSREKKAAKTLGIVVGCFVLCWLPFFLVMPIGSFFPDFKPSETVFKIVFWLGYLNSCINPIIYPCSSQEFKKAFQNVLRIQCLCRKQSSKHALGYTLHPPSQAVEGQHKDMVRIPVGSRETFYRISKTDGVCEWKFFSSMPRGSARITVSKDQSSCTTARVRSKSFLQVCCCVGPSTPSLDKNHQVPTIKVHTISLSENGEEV

For `COc1cc2nc(N3CCN(C(=O)c4ccco4)CC3)nc(N)c2cc1OC` [[^3H]prazosin], the “Bmax α1B” value [1] was 1.59±0.10 pmoles/mg protein, the “Bmax α1D” value [2] was 0.46±0.04 pmoles/mg protein and the “Bmax α1A” value [3] was 0.56±0.01 pmoles/mg protein.
